Measured values reported in PubChem BioAssay AID493036 (Sanford-Burnham Center for Chemical Genomics, 2011).
This is a selection; strong and weak results do not stand in their true shares. The source made the active and inactive calls.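 Rule for the calls: active = activation at or above 40% of the spot to cytoplasm intensity ratio, with at least 20 cells analyzed; inconclusive = wells under 20 cells, flagged as cytotoxic or low count; inactive = the rest.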

Protein sequences, listed by entry. Tags and fused reporters are not part of them.
UniProt P30989, whole entry: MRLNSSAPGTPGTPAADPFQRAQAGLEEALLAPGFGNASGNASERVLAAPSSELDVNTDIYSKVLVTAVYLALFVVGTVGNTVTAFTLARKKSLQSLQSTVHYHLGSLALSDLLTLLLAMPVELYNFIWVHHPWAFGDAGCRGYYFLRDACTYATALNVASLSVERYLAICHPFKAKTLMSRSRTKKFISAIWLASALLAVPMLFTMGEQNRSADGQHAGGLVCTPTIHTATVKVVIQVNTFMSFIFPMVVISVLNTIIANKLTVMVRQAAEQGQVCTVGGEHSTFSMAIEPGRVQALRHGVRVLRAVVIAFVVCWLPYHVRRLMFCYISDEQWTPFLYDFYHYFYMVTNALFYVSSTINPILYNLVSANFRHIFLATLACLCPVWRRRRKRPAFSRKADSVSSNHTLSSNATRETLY

Molecular target: Neurotensin receptor type 1 (Homo sapiens) (UniProt P30989)
Experiment: agonists of NTR1, primary screen, imaging, U2OS cells, beta-arrestin-GFP, high content (AID 493036) (AID 493036);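 note: 0% = DMSO without peptide and 100% = 100 nM NTR1 peptide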
Conditions: NTR1-U2OS beta-arrestin-GFP spot imaging, agonist mode; at 20 µM; active compounds read high

Row | Structure (SMILES) | activation
1 | O=P(Nc1nc2ccccc2s1)(c1ccccc1)c1ccccc1 | inactive: -1.4%
2 | O=P(Nc1ccccn1)(c1ccc(Br)cc1)c1ccc(Br)cc1 | inactive: -0.2%
3 | CN(C)C1(CNC(=O)c2ccc(Cl)c(S(N)(=O)=O)c2)CCCCC1 | inactive: -0.7%
4 | COc1ccc(OP(C)(=O)Nc2cccc(Br)c2)cc1 (centres undefined) | inactive: -0.8%
5 | O=C(OC1CN2CCC1CC2)c1cccc(Cl)c1 (centres undefined) | inactive: 1%
6 | Nc1ccc([As](=O)(O)c2ccc([N+](=O)[O-])cc2)cc1 | inactive: 1%
7 | C(Cc1nn[nH]n1)Cc1nn[nH]n1 | inactive: -1%
8 | O=[N+]([O-])c1cc([N+](=O)[O-])c(NCC2CCS(=O)(=O)C2)c([N+](=O)[O-])c1 (centres undefined) | inactive: 1.2%
9 | O=[As](O)(c1ccccc1)c1ccc(O)cc1 | inactive: -1.4%
10 | O=[N+]([O-])c1ncn(CCn2cnc([N+](=O)[O-])n2)n1 | inactive: 0.6%
11 | c1nnnn1CCn1cnnn1 | inactive: 2%
12 | CCOP(C)(=S)SCC(=O)NC(C)(CC)C(=O)O (centres undefined) | inactive: -2.1%
13 | CC(C)C(=O)NC(Sc1ccccc1)C(Cl)(Cl)Cl (centres undefined) | inactive: -1.5%
14 | O=P(Nc1nccs1)(c1ccccc1)c1ccccc1 | inactive: 0.6%
15 | CP(=O)(Nc1ccc(SC(F)(F)F)cc1)Oc1ccc(F)cc1 (centres undefined) | inactive: -0.3%
16 | Cc1ccccc1NP(C)(=O)Nc1ccccc1C | inactive: 2.1%
17 | CP(=O)(Nc1ccc2c(c1)OCCO2)Oc1ccccc1 (centres undefined) | inactive: -0.1%
18 | CC(C)(C)C(=O)NC(Sc1ncccn1)C(Cl)(Cl)Cl (centres undefined) | inactive: -0.2%
19 | Clc1n[nH]nc1-c1nn[nH][15n]1 | inactive: 0.1%
20 | CCOP(=O)(NC(=NC(C)c1ccccc1)NC(C)c1ccccc1)OCC (centres undefined) | inactive: 2.7%

Row | Structure (SMILES) | activation
21 | O=[N+]([O-])c1cc([N+](=O)[O-])c(-n2nnc3ccccc32)c([N+](=O)[O-])c1 | inactive: 1%
22 | O=P1(Nc2ccccn2)COc2ccccc2OC1 | inactive: -1.4%
23 | CCC1=CC2Cc3nc4ccc(Cl)cc4c(N)c3C(C1)C2 (centres undefined) | inactive: 7%
24 | CN(CCCl)Cc1cc(Cl)c(NC2=NCCN2)c(Cl)c1 | inactive: 1.3%
25 | CCOP(=O)(Nc1ccc(C)cn1)OCC | inactive: 1.4%
26 | CC(C)/C=N\N=C(\N)N[N+](=O)[O-] | inactive: -0.7%
27 | CN(C(=O)Cc1ccc(Cl)c(Cl)c1)[C@@H]1CCCC[C@H]1N1CCCC1 | inactive: -2.9%
28 | CC1(CBr)Cn2c(nc3ccccc3c2=O)S1 (centres undefined) | inactive: -0.2%
29 | Cc1nc2ccc3ccccc3c2s1.O=[N+]([O-])c1cc([N+](=O)[O-])c(O)c([N+](=O)[O-])c1 | inactive: -0.5%
30 | O=[As](O)(c1ccccc1Br)c1ccccc1Br | inactive: -1.3%
31 | O=[N+]([O-])c1cc([N+](=O)[O-])c(-c2cnn(-c3ccccc3)c2)c([N+](=O)[O-])c1 | inactive: 9.5%
32 | COc1ccccc1CNC(=O)COC(=O)C(O)(c1ccccc1)c1ccccc1 | inactive: 1%
33 | CCOC(=O)C(CC)C1=NC(C)(C)Cc2ccccc21.O=[N+]([O-])c1cc([N+](=O)[O-])c(O)c([N+](=O)[O-])c1 (centres undefined) | inactive: 0.1%
34 | O=[N+]([O-])c1cc([N+](=O)[O-])c(Nc2nnnn2CCO)c([N+](=O)[O-])c1 | inactive: -0.7%
35 | CN(C)C1(CNC(=O)c2ccc(S(C)(=O)=O)cc2)CCCCC1 | inactive: 1.5%
36 | CC1=C2N=C(C=C3N=C(C(C)=C4[N-][C@@](C)([C@@H]5N=C1[C@](C)(CCC(=O)NC[C@@H](C)OP(=O)([O-])O[C@H]1[C@@H](O)[C@@H](n6cnc7cc(C)c(C)cc76)O[C@@H]1CO)[C@H]5CC(N)=O)[C@@](C)(CC(N)=O)[C@@H]4CCC(N)=O)[C@@](C)(CC(N)=O)[C@@H]3CCC(N)=O)C(C)(C)[C@@H]2CCC(N)=O.[C-]#N.[Co+3] | inactive: -0.3%
37 | O=C(/C=C/c1ccccc1)OC1CN2CCC1CC2 (centres undefined) | inactive: -0.4%
38 | CC1CCC(C(C)C)C(OP(=O)(Nc2ccccn2)c2ccccc2)C1 (centres undefined) | inactive: 7.5%
39 | Cc1ccc(C(=O)OC2CN3CCC2CC3)cc1 (centres undefined) | inactive: -1.4%
40 | Cc1nn(-c2ccccc2)c2c1P(=O)(N1CCOCC1)N(C)C(c1ccccc1)=N2 (centres undefined) | inactive: -0.2%

Row | Structure (SMILES) | activation
41 | COc1cc(C2NCCC3(OCCO3)C2(C)C)cc(OC)c1OC.O=[N+]([O-])c1cc([N+](=O)[O-])c(O)c([N+](=O)[O-])c1 (centres undefined) | inactive: 0.2%
42 | CP(=O)(Nc1ccc(SC(F)(F)F)cc1)Oc1ccccc1 (centres undefined) | inactive: -0.2%
43 | Nc1cccc([As](=O)(O)c2ccccc2)c1 | inactive: 2.1%
44 | CCCOc1ccc(NP(C)(=O)Oc2ccc(Cl)cc2)cc1 (centres undefined) | inactive: 0.6%
45 | O=P1(Nc2ccc(Br)cn2)COc2ccccc2OC1 | inactive: 1.5%
46 | NS(=O)(=O)c1cccc(NC(=O)COC(=O)C(O)(c2ccccc2)c2ccccc2)c1 | inactive: 1.2%
47 | Cc1ccc(OCC(=O)OC2CN3CCC2CC3)cc1 (centres undefined) | inactive: 2.3%
48 | O=[As](O)(c1cccs1)c1cccs1 | inactive: 1.6%
49 | O=P1(Nc2ncccn2)COc2ccccc2OC1 | inactive: 0.6%
50 | COc1ccccc1OP(C)(=O)Nc1c(C)cccc1C (centres undefined) | inactive: -0.8%
51 | CN1CCCCC1COC(=O)C1(O)c2ccccc2CCc2ccccc21 (centres undefined) | inactive: -1.5%
52 | Nc1ccccc1[As](=O)(O)c1ccccc1 | inactive: -1.5%
53 | O=C(O)COc1ccc([As](=O)(O)O)cc1[N+](=O)[O-] | inactive: -1%
54 | O=P(Nc1nccs1)(c1ccccc1)c1nc2ccccc2s1 (centres undefined) | inactive: 0.2%
55 | O=P(Nc1nccs1)(Oc1ccccc1)Oc1ccccc1 | inactive: -0.7%
56 | CCOP1(=S)c2c(C)nn(CCC#N)c2N=C(c2ccccc2F)N1C (centres undefined) | inactive: -0.5%
57 | O=C(O)c1cccc(Nc2c([N+](=O)[O-])cc([N+](=O)[O-])cc2[N+](=O)[O-])c1 | inactive: 1.7%
58 | CS(=O)(=O)c1cc([N+](=O)[O-])c2no[n+]([O-])c2c1 | inactive: 2.3%
59 | CN(C(=O)Cc1ccccc1)[C@@H]1CC[C@]2(CCCO2)C[C@H]1N1CCCC1 | inactive: -0.3%
